These are literature values, as cited in paper PMC10871162.

Like-named read-outs stand apart in the source and are kept apart here.

In series [1] the target is NMDA receptor NR1 C1 C1 (Homo sapiens) (UniProt Q05586).
The target in series [2] is STRA6 BP2 peptide BP2 (Danio rerio) (UniProt F1RAX4).
For series [3], the target named is NMDA receptor NR1 C0 C0 (Homo sapiens) (UniProt Q05586).
Series [4] addresses ryanodine receptor 2 CAMBD3 (Homo sapiens) (UniProt Q92736).
The target of series [5] is STRA6 BP2 peptide BP2 (Danio rerio) (UniProt F1RAX4). This is another data set of the same source.
The target in series [6] is NMDA receptor NR1 C0 C0 (Homo sapiens) (UniProt Q05586). The source holds these as a separate data set.
In series [7] the target is NMDA receptor NR1 C1 C1 (Homo sapiens) (UniProt Q05586). This is another data set of the same source.
The target in series [8] is iNOS peptide iNOS peptide (Homo sapiens) (UniProt P35228).
Series [9] has the same target. This is another data set of the same source.
The target in series [10] is NaV1.4 IQ motif (Homo sapiens) (UniProt P35499).

As usually defined, the Kd is the equilibrium constant for the complex coming apart. With calmodulin (from UniProt P0DP23), the Kd was 0.002 µM in series [1]; 0.0009 µM in series [2]; 0.087 µM in series [3]; 0.53 µM in series [4]; 0.14 µM in [5]; 2.25 µM in series [6]. For the same substance, the Kd in series [7] is 0.158 µM; in [8], 0.07 µM; in series [9], 0.0033 µM; in series [10], 0.28 µM.
